In article PMC7615677, “DNDI-6174, a preclinical candidate for visceral leishmaniasis that targets the cytochrome bc1 complex” (Science translational medicine, 2023):
Read-outs that look alike come from different tables or passages of the source.

Tests used:
[1] = Compartmental PK modelling and repeat-dose simulation; design: species or system hamsters
Experimental: (§1) To support pharmacokinetic/pharmacodynamic (PKPD) analysis, data in mice and hamsters were also analyzed by compartmental modeling using Phoenix WinNonlin (version 8.2; Certara, Princeton, NJ). For each dose level, an extravascular dosing, single compartment disposition model was fit to the combined Day 1/Day 5 repeat dose plasma data. The model was parameterized with a single volume term (V/F), and with first order absorption (K01) and elimination (K10) rate constants. Initial values for the parameter estimates were obtained by fitting of the model to the Day 1 data at the lowest dose level only, and the same initial values were used across the dose range. Experimental data used in model fitting were the mean concentration-time profiles and the average dose administered to each group. The weighting scheme (1/Y2 for mouse and 1/Y for hamster) was selected based on goodness of fit of the peak region of the experimental profiles. Parameter estimates obtained through fitting were used to simulate full repeat-dose plasma concentration-time profiles with both once-daily and twice-daily (dosing at […]) administration at each dose level and treatment duration used in the efficacy studies.

[2] = as above; conditions: mice, simulated; for AUC: read-out: AUC24 ss
Experimental: as §1

[3] = system: L. donovani promastigote cultures; type: cell-based, Leishmania donovani
Experimental: The clonal L. donovani cell line LdBOB (derived from MHOM/SD/62/1S-CL2D) was grown as promastigotes at 28°C and as axenic amastigotes at 37°C, as described previously ([25]).
To examine the effects of test compounds on growth in 96-well plates, promastigote or axenic amastigote cultures seeded at 5 × 10^4 parasites mL^–1 were incubated in the presence of 2-fold serial dilutions of test compounds for 72 h. Following incubation, 50 μM resazurin was added to each well and fluorescence (excitation of 528 nm and emission of 590 nm) measured after a further 3 h incubation.
Starting at sublethal concentrations, drug concentrations in 5 independent cultures were increased in a stepwise manner, usually by 2-fold. […] Five clones (Res 1–5) were selected for further biological study.

[4] = hamster, plasma, po, Hamsters, 6.25 mg/kg, fitted
[5] = hamsters, 3.125 mg/kg bid, 5 days, simulated
[6] = hamsters, 6.25 mg/kg bid, 5 days, simulated
[7] = hamsters, 6.25 mg/kg qd, 5 days, simulated
[8] = mouse, plasma, po, 6.25 mg/kg, 6.25 mg/kg bid, 5 days
[9] = mouse, plasma, po, 6.25 mg/kg, 6.25 mg/kg bid, 10 days

Cc1[nH]c2nc(N)nc(C)c2c1-c1ccc(C#N)c2c1OCO2 [DNDI-6174]
K01 ([1]; Hamsters, 6.25 mg/kg, fitted): 0.304 h⁻¹ | K10 ([1]; Hamsters, 6.25 mg/kg, fitted): 0.481 h⁻¹ | V/F ([1]; Hamsters, 6.25 mg/kg, fitted): 3.20 L/kg | AUC ([1]; hamster, plasma, po, 3.125 mg/kg, hamsters, 3.125 mg/kg bid, 5 days, simulated, read-out: AUC24 ss): 4060 ng·h/mL | AUC ([1]; hamster, plasma, po, 3.125 mg/kg, hamsters, 3.125 mg/kg bid, 5 days, simulated, read-out: Cum AUC): 20300 ng·h/mL | Cmax ([1]; hamster, plasma, po, 6.25 mg/kg, Hamsters, fitted): 563 ng/mL | Cmax ([1]; hamster, plasma, po, 6.25 mg/kg, hamsters, 6.25 mg/kg bid, 5 days, simulated): 682 ng/mL | AUC ([1]; hamster, plasma, po, 6.25 mg/kg, hamsters, 6.25 mg/kg bid, 5 days, simulated, read-out: AUC24 ss): 8130 ng·h/mL | AUC ([1]; hamster, plasma, po, 6.25 mg/kg, hamsters, 6.25 mg/kg bid, 5 days, simulated, read-out: Cum AUC): 40600 ng·h/mL | Cmax ([1]; hamster, plasma, po, 6.25 mg/kg, hamsters, 6.25 mg/kg qd, 5 days, simulated): 563 ng/mL | AUC ([1]; hamster, plasma, po, 6.25 mg/kg, hamsters, 6.25 mg/kg qd, 5 days, simulated, read-out: AUC24 ss): 4060 ng·h/mL | AUC ([1]; hamster, plasma, po, 6.25 mg/kg, hamsters, 6.25 mg/kg qd, 5 days, simulated, read-out: Cum AUC): 20300 ng·h/mL | AUC(0-inf) [1, 4]: 4070 ng·h/mL | CL/F [1, 4]: 25.6 mL/min/kg | AUC24 ss (unbound) [1, 5]: 0.366 µg·h/mL | Cav ss [1, 5]: 0.169 µg/mL | Cav ss (unbound) [1, 5]: 0.015 µg/mL | Cum AUC (unbound) [1, 5]: 1.83 µg·h/mL | AUC24 ss (unbound) [1, 6]: 0.731 µg·h/mL | Cav ss [1, 6]: 0.339 µg/mL | Cav ss (unbound) [1, 6]: 0.030 µg/mL | Cmax (unbound) [1, 6]: 0.061 µg/mL | Cmin [1, 6]: 0.027 µg/mL | Cmin (unbound) [1, 6]: 2 ng/mL | Cum AUC (unbound) [1, 6]: 3.66 µg·h/mL | AUC24 ss (unbound) [1, 7]: 0.366 µg·h/mL | Cav ss [1, 7]: 0.169 µg/mL | Cav ss (unbound) [1, 7]: 0.015 µg/mL | Cmax (unbound) [1, 7]: 0.051 µg/mL | Cmin [1, 7]: 0.0022 µg/mL | Cmin (unbound) [1, 7]: 0.2 ng/mL | Cum AUC (unbound) [1, 7]: 1.83 µg·h/mL | AUC24 ss ([2]; 6.25 mg/kg bid, 5 days): 26.1 µg·h/mL | AUC24 ss (unbound) ([2]; 6.25 mg/kg bid, 5 days): 3.13 µg·h/mL | Cav ss ([2]; 6.25 mg/kg bid, 5 days): 1.09 µg/mL | Cav ss (unbound) ([2]; 6.25 mg/kg bid, 5 days): 0.130 µg/mL | Cmax ([2]; 6.25 mg/kg bid, 5 days): 2.33 µg/mL | Cmax (unbound) ([2]; 6.25 mg/kg bid, 5 days): 0.279 µg/mL | Cmin ([2]; 6.25 mg/kg bid, 5 days): 0.102 µg/mL | Cmin (unbound) ([2]; 6.25 mg/kg bid, 5 days): 0.012 µg/mL | Cum AUC ([2]; 6.25 mg/kg bid, 5 days): 131 µg·h/mL | Cum AUC (unbound) ([2]; 6.25 mg/kg bid, 5 days): 15.7 µg·h/mL | AUC24 ss (unbound) ([2]; 6.25 mg/kg bid, 10 days): 3.13 µg·h/mL | Cav ss ([2]; 6.25 mg/kg bid, 10 days): 1.09 µg/mL | Cav ss (unbound) ([2]; 6.25 mg/kg bid, 10 days): 0.130 µg/mL | Cmax (unbound) ([2]; 6.25 mg/kg bid, 10 days): 0.279 µg/mL | Cmin ([2]; 6.25 mg/kg bid, 10 days): 0.102 µg/mL | Cmin (unbound) ([2]; 6.25 mg/kg bid, 10 days): 0.012 µg/mL | Cum AUC (unbound) ([2]; 6.25 mg/kg bid, 10 days): 31.3 µg·h/mL | AUC24 ss ([2]; 25 mg/kg bid, 5 days): 131 µg·h/mL | Cmax at 5 days [2, 8]: 2330 ng/mL | AUC [2, 8]: 26100 ng·h/mL | AUC at 5 days ([2]; mouse, plasma, po, 6.25 mg/kg, 6.25 mg/kg bid, 5 days, read-out: Cum AUC): 131 µg·h/mL | Cmax at 10 days [2, 9]: 2330 ng/mL | AUC [2, 9]: 26100 ng·h/mL | AUC at 10 days ([2]; mouse, plasma, po, 6.25 mg/kg, 6.25 mg/kg bid, 10 days, read-out: Cum AUC): 261 µg·h/mL | AUC ([2]; mouse, plasma, po, 25 mg/kg, 25 mg/kg bid, 5 days): 131000 ng·h/mL | Fold-change versus WT ([3]; DDD01716002 Res 1): 32 | Fold-change versus WT ([3]; DDD01716002 Res 2): 34 | Fold-change versus WT ([3]; DDD01716002 Res 3): 3.5 | Fold-change versus WT ([3]; DNDI-6174 Res 1): 18 | Fold-change versus WT ([3]; DNDI-6174 Res 3): 62.5 | Fold-change versus WT ([3]; DNDI-6174 Res 4): 112 | Fold-change versus WT ([3]; DNDI-6174 Res 5): 6
